The subject of this test is Peptostreptococcus intermedius. The experiment in a line: agar-dilution MIC. The test is classed as cell-based. The procedure: The MIC values were determined by the agar-dilution method, and are recorded in Table 15, which follows.

Results on 1 substance are retold here after patent US4604239A, “Antibiotics” (Eli Lilly and Company, priority 1985, dated 1986).

On to A41030 factor C, for which the MIC is, setting by setting: (Peptostreptococcus intermedius 1264, Table 14) 0.5 µg/mL; (Ps. intermedius 1524, Table 15) 0.5 µg/mL.

As usually defined, the MIC is the smallest concentration in the dilution series that meets the test's criterion for growth inhibition.
